Values of other authors in US9902758B2, “Three-helix bundle protein and use thereof” (Samsung Electronics Co., Ltd., priority 2015, dated 2018).

Amino acid sequences for entries named in this document (tags omitted).
UniProt Q00987, whole entry: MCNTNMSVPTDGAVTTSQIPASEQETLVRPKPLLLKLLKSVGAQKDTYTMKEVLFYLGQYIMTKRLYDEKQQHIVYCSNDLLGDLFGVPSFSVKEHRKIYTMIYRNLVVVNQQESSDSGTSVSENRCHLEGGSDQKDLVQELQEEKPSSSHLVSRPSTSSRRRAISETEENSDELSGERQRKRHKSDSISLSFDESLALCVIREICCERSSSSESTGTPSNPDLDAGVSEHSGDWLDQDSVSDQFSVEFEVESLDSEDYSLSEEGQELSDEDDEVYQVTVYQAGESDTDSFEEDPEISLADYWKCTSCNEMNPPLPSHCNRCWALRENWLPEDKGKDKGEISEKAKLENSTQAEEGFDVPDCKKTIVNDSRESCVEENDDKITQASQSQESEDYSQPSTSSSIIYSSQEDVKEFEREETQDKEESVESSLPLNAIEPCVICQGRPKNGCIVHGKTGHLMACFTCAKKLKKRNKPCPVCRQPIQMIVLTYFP

Target: HDM2 (Homo sapiens, UniProt Q00987)
Conditions: related art statement; cited from earlier work

In the case of `COc1ccc(C2=N[C@@H](c3ccc(Cl)cc3)[C@@H](c3ccc(Cl)cc3)N2C(=O)N2CCNC(=O)C2)c(OC(C)C)c1` [Nutlin-3], the “inhibition of binding of HDM2/HDMX and p53” value is listed as “inhibit only the binding of HDM2 and p53”.
